Reference: patent US8735444B2, “Fluorinated rhodamines as photostable fluorescent dyes for labelling and imaging techniques” (Max-Planck-Gesellschaft zur Foerderung der Wissenschaften …, priority 2009, dated 2014)

Assay: Spectral properties of the fluorinated rhodamines (absorption, emission, quantum yield, lifetime)
Assay type: physicochemical
Settings: aqueous buffer at pH 7

In the case of “2,7-Difluoro-5′(6′)-methoxycarbonyl-N,N,N′,N′-tetramethyl-rhodamine [Compound 28]”, the ΦFL is reported as 0.28 and the τFL is reported as 1.6 ns.
